The record followed here is PubChem BioAssay AID602244 (Sanford-Burnham Center for Chemical Genomics, 2012).

Protein sequences, listed by entry. Tags and fused reporters are not part of them.
UniProt O00574, whole entry: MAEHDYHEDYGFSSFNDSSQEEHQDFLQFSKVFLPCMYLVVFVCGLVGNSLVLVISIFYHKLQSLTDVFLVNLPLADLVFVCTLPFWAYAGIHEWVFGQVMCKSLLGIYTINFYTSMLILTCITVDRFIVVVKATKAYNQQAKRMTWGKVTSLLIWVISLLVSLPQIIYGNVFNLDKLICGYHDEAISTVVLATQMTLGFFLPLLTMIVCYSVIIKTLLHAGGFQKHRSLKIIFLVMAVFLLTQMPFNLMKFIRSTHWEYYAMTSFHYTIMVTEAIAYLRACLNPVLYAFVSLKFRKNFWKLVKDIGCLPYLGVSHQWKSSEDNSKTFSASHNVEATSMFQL

The list shows a part of the results, in another mix than the full data. The source made the active and inactive calls. No stated cut-off is given here; in the data, active means inhibition above about 34% (passing the limit was not always enough); inactive means the rest.

This assay addresses C-X-C chemokine receptor type 6 (Homo sapiens) (UniProt O00574). The experiment in a line: CXCR6 receptor inhibitors, primary screen, cell-based, beta-arrestin, luminescence, CHO-K1 PathHunter, 1536-well (AID 602244).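 Further: antagonist mode with CXCL16 agonist at 10 nM final; 0% = 10 nM CXCL16 with DMSO and 100% = unstimulated wells without agonist.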 The following applies: at 20 µM, hits give high values.
As usually defined, the inhibition is the relative decrease from the control value, in per cent. Consider `O=c1[nH]c2ccccc2n1C1CCN(C(c2cccs2)c2nnnn2C2CCCCC2)CC1` (configuration not stated), for which the inhibition is inactive: 1.1%.
Take `O=c1[nH]c2ccccc2n1C1CCN(C(c2ccnc3ccccc23)c2nnnn2C2CCCC2)CC1` (configuration not stated): the inhibition was inactive: -1.2%.
As to `COc1ccc(C(=O)NCC2(N3CCOCC3)CCCCC2)cc1OC`, the inhibition is inactive: 6.2%.
For the compound `COc1cc(C(=O)NCC2(N3CCOCC3)CCCCC2)cc(OC)c1C`, the inhibition was inactive: 2.6%.
To `CCCCn1nnnc1C(c1ccccc1)N1CCC(n2c(=O)[nH]c3ccccc32)CC1` (configuration not stated) belongs inactive: -2.3%; to `O=C(NCC1(N2CCOCC2)CCCCC1)c1cc(Br)ccc1Cl`, inactive: 1%.
To `O=c1[nH]c2ccccc2n1C1CCN(C(c2cccs2)c2nnnn2C2CCCC2)CC1` (configuration not stated) belongs inactive: 1.9%; to `O=C(OC1CN2CCC1CC2)C1c2ccccc2C=Cc2ccccc21` (configuration not stated), inactive: 7.9%; to `CCCCn1nnnc1C(c1cccc(OC)c1OC)N1CCC(n2c(=O)[nH]c3ccccc32)CC1` (configuration not stated), inactive: 3.8%.
Consider `COc1cccc(C(c2nnnn2C(C)(C)C)N2CCC(n3c(=O)[nH]c4ccccc43)CC2)c1OC` (configuration not stated), for which the inhibition was inactive: -3.1%.
Turning to `CCOC(=O)N1CCC(Nc2ccc(C)cc2)CC1`, the inhibition was inactive: -3.3%.
On to `N/C(=N\O)c1c(N)no[n+]1[O-]`, for which the inhibition is inactive: -15.2%.
For the compound `N#Cc1ccc(C(=O)NCC2(N3CCCCC3)CCCCC2)cc1`, the inhibition was inactive: 11.7%.
As for `CC(C)(C)OC(=O)N1CCC(N(C(=O)c2ccccc2)c2ccc(Cl)cc2)CC1`, the inhibition was inactive: 15.3%.
With `CC(C)(C)n1nnnc1C(c1cccc2ccccc12)N1CCC(n2c(=O)[nH]c3ccccc32)CC1` (configuration not stated) the figure was inactive: 4%; with `CN(C)C1(CNC(=O)c2cccc(C#N)c2)CCCCC1`, inactive: 1.2%; with `CCCN1CCC(Nc2cc(OC)cc(OC)c2)CC1`, inactive: -17.8%.
On to `O=c1[nH]c2ccccc2n1C1CCN(C(c2ccccc2)c2nnnn2C2CCCC2)CC1` (configuration not stated), for which the inhibition was inactive: -1.5%.
To `Cc1cc(N(CCCl)CCCl)ccc1C=O` belongs inactive: -13%; to `c1ccc(CN2CCC(Nc3ccccc3)CC2)cc1`, inactive: 1.9%; to `Fc1ccccc1NC1CCN(Cc2ccccc2)CC1`, inactive: 4%.
To `Cc1ccc(C(=O)NCC2(N3CCCCC3)CCCCC2)o1` belongs inactive: -2.5%.
Turning to `Cc1ccc(NC2(C#N)CCN(Cc3ccccc3)CC2)cc1`, the inhibition was inactive: -4.1%.
Consider `CCC(c1nnnn1C1CCCCC1)N1CCC(n2c(=O)[nH]c3ccccc32)CC1` (configuration not stated), for which the inhibition was inactive: 5.3%.
As for `CC(=O)N(c1ccccc1)C1CCNCC1`, the inhibition was inactive: 1.5%.
Take `COc1cccc(C(c2nnnn2C2CCCCC2)N2CCC(n3c(=O)[nH]c4ccccc43)CC2)c1OC` (configuration not stated): the inhibition was inactive: 9.2%.
Consider `O=c1[nH]c2ccccc2n1C1CCN(C(c2ccnc3ccccc23)c2nnnn2C2CCCCC2)CC1` (configuration not stated), for which the inhibition is inactive: 9.8%.
To `COc1cc(OC)cc(C(=O)NCC2(N3CCCCC3)CCCCC2)c1` belongs inactive: 11.4%; to `Cn1c(=O)[nH]cc(N(CCCl)CCCl)c1=O`, inactive: -0.2%.
To `CN(C)c1ccc(C(=O)NCC2(N3CCCCC3)CCCCC2)cc1` belongs inactive: 1.3%.
With `O=C(NCC1(N2CCCCC2)CCCCC1)c1ccco1`, the inhibition is inactive: 0.2%.
With `CC(C)(C)n1nnnc1C(c1ccnc2ccccc12)N1CCC(n2c(=O)[nH]c3ccccc32)CC1` (configuration not stated), the inhibition is inactive: 1.5%.
With `COc1ccc(C(c2nnnn2C2CCCCC2)N2CCC(n3c(=O)[nH]c4ccccc43)CC2)cc1` (configuration not stated) the figure was inactive: -5%; with `CCN1CCC(Nc2cccc(F)c2)CC1`, inactive: 3.3%; with `Cc1ccccc1NC1(C#N)CCN(Cc2ccccc2)CC1`, inactive: -5.5%.
With `O=C(O)C1(Nc2ccccc2)CCN(Cc2ccccc2)CC1` the figure was inactive: 4.1%; with `NN(c1ccccc1)C1CCN(CCc2ccccc2)CC1`, inactive: -2.8%.
As to `CC(C)(C)OC(=O)N1CCC(Nc2ccccc2)CC1`, the inhibition is inactive: 5.6%.
In the case of `CCCOc1ccc(C(=O)NCC2(N(C)C)CCCCC2)cc1`, the inhibition was inactive: 2.9%.
With `O=c1[nH]c2ccccc2n1C1CCN(C(c2cc3ccccc3o2)c2nnnn2C2CCCC2)CC1` (configuration not stated), the inhibition was inactive: 0%.
`CN1CCC(Nc2ccc(F)c(Cl)c2)CC1`: the inhibition was inactive: 0.1%.
Regarding `CCOc1ncccc1C(=O)NCC1(N2CCOCC2)CCCCC1`, the inhibition is inactive: 1.8%.
With `CN1CCC(Nc2ccc(Cl)cc2)CC1`, the inhibition is inactive: 0.5%.
With `COc1cccc(C(c2nnnn2C2CCCC2)N2CCC(n3c(=O)[nH]c4ccccc43)CC2)c1OC` (configuration not stated) the figure was inactive: 5.7%.
In the case of `COc1cc(OC)cc(C(=O)NCC2(N3CCOCC3)CCCCC2)c1`, the inhibition was inactive: 2.9%.
For `COc1cccc(C(=O)N(c2cc(C)cc(C)c2)C2CCN(C(=O)OC(C)(C)C)CC2)c1`, the inhibition is inactive: 9.5%.
With `CCC(CO)(C(=O)OC1CN2CCC1CC2)c1ccccc1` (configuration not stated) the figure was inactive: -3.9%.
